{
  "sequences": {"note": "Amino acid sequences for entries named in this document (tags omitted). Residues count along the entry.", "UniProt P28335, 33-458": "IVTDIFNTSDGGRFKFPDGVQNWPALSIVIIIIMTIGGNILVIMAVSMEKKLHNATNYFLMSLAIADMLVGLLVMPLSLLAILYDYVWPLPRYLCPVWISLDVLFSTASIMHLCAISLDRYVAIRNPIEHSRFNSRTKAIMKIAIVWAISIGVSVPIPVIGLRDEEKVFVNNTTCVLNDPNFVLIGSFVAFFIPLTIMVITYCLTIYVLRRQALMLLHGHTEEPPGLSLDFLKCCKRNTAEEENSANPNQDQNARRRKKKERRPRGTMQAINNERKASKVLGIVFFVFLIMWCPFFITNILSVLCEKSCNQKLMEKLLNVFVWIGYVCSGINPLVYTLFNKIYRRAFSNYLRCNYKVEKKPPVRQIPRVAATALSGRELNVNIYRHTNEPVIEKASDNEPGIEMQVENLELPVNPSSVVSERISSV"},
  "source": "patent US7365095B2",
  "about": "“Chromane and chromene derivatives and uses thereof” (Wyeth, priority 2005, dated 2008)",
  "key": {"[1]": {"biological_target": "T1, human 5-hydroxytryptamine-2C (h5-HT2C) receptor (Homo sapiens, UniProt P28335)", "T1 construct": "expressed in transfected cells; host or cells: CHO (Chinese Hamster Ovary) cells; membrane preparation", "test": "[125I]DOI binding to membranes of CHO cells expressing h5-HT2C receptor", "conditions": "reference compounds; 95% confidence interval in brackets; [125I]DOI displacement"}, "human 5-HT2C receptor": {"biological_target": "human 5-HT2C receptor (Homo sapiens, UniProt P28335)", "conditions": "reference compounds; calcium mobilization"}},
  "data": [
    {"substance": "1-(2,5-dimethoxy-4-iodophenyl)isopropylamine [DOI, reference compound]", "values": [
      {"measurement": "Ki", "setting": "[1]", "value": 6.2, "unit": "nM"},
      {"measurement": "EC50", "setting": "human 5-HT2C receptor", "value": 0.5, "unit": "nM"}
    ]}
  ]
}
